B3: ε subunit of DNA polymerase III holoenzyme (enzyme)
chain: MSTAITRQIVLDTETTGMNQIGAHYEGHKIIEIGAVEVVNRRLTGNNFHVYLKPDRLVDPEAFGVHGIADEFLLDKPTFAEVADEFMDYIRGAELVIHNAAFDIGFMDYEFSLLKRDIPKTNTFCKVTDSLAVARKMFPGKRNSLDALCARYEIDNSKRTLHGALLDAQILAEVYLAMTGGQTSMAFAMEGETQQQQGEATIQRIVRQASKLRVVFATDEEIAAHEARLDLVQKKGGSCLWRA
notes: mature; also called epsilon

Tests used:
[1] = target: B3; assay: cell-based or functional assay
[2] = target: B3; assay: densitometric analysis of the εθ complex
[3] = target: T1, δ′ subunit of DNA polymerase III holoenzyme (holB gene product) (E. coli, UniProt P28631 1-334); assay: densitometry of Coomassie Blue stained gel of the δδ′ complex
T1 construct: The preparation is a mixture of two polypeptides, δ′S (size predicted by the gene) and δ′L (521 Da larger), about 2:1; It is monomeric; also called delta prime; cloned δ′
T1 sequence: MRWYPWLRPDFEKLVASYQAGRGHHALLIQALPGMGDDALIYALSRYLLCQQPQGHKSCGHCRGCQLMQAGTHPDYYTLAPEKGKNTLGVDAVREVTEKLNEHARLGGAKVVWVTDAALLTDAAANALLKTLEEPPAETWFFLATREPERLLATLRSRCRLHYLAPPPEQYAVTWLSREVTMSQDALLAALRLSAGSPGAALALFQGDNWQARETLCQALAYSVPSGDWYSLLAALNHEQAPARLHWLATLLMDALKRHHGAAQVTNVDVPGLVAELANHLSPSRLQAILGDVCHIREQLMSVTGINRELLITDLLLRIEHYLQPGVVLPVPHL

[4] = target: T2, α subunit of DNA polymerase III holoenzyme (E. coli, UniProt P10443 1-1160); assay: gel filtration at 73 µM α and 73 µM ε
T2 construct: mature; also called alpha
T2 sequence: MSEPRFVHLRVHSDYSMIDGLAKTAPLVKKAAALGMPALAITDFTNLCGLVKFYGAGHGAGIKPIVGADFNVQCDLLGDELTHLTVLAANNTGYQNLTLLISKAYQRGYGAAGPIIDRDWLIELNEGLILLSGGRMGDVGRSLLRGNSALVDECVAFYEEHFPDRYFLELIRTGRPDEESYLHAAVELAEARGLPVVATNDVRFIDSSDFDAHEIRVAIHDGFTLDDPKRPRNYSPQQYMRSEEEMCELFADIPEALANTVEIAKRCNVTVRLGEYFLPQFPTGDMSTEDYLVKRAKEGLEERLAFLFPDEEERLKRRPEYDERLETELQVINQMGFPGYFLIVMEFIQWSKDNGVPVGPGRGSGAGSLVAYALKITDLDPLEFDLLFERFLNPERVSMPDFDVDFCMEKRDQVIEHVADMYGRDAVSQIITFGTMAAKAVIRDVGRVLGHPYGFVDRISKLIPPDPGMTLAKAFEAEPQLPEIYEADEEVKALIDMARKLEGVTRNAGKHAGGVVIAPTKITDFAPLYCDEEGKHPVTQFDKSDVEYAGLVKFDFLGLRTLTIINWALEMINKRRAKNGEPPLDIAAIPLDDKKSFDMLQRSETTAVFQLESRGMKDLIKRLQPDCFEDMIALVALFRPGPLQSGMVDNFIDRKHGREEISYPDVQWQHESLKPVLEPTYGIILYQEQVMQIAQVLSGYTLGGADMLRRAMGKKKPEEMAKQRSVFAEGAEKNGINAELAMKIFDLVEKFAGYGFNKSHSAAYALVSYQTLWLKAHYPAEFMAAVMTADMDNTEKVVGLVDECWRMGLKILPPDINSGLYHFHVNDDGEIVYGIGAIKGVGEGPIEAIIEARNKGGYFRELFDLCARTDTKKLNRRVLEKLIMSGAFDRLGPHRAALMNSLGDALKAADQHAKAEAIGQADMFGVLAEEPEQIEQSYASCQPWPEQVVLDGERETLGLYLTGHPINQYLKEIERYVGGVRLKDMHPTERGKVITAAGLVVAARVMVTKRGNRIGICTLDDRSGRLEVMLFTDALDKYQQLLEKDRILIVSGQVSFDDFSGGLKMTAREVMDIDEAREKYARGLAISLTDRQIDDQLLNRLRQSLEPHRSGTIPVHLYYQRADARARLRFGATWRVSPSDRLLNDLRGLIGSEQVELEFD

B1: θ subunit of DNA polymerase III holoenzyme (holE gene product) (other)
chain: MLKNLAKLDQTEMDKVNVDLAAAGVAFKERYNMPVIAEAVEREQPEHLRSWFRERLIAHRLASVNLSRLPYEPKLK
notes: 76 amino acids, printed in three-letter code and converted here; Monomer; also called theta
Question: With B1 as the binder, how does the “3′→5′ exonuclease activity of ε (excision of a 3′ mismatched T residue)” value [1] read?
Answer: 3 fold

Question: What about the “molar ratio in the εθ complex” value [2] of the same binder?
Answer: 0.8 mol θ per mol ε

B2: δ subunit of DNA polymerase III holoenzyme (holA gene product) (other)
chain: MIRLYPEQLRAQLNEGLRAAYLLLGNDPLLLQESQDAVRQVAAAQGFEEHHTFSIDPNTDWNAIFSLCQAMSLFASRQTLLLLLPENGPNAAINEQLLTLTGLLHDDLLLIVRGNKLSKAQENAAWFTALANRSVQVTCQTPEQAQLPRWVAARAKQLNLELDDAANQVLCYCYEGNLLNLAQALERLSLLWPDGKLTLPRVEQAVNDAAHFTPFHWVDALLMGKSKRALHILQQLRLGGSEPVILLRTLQRELLLLVNLKRQSAHTPLRALFDKHRVWQNRRGMMGEALNRLSQTQLRQAVQLLTRTELTLKQDYGQSVWAELEGLSLLLCHKPLADVFIDG
notes: Overproduced from pETdelta and purified; 343 amino acids; Monomer in gel filtration and sedimentation; also called delta; cloned δ
Question: For B2, which “molar ratio δ:δ′ in the complex” value [3] is on record?
Answer: 1.1 mol δ per mol δ′

Question: Does B3 bind [4]?
Answer: binds

Source: patent US6875852 (CORNELL RESEARCH FOUNDATION, dated 2005)
